Test results from US10927106B2, “Benzothiazole derivatives as DYRK1 inhibitors” (PHARMASUM THERAPEUTICS AS, priority 2017, dated 2021).

Columns and labels:
Conditions in all cases: 1 micromolar inhibitor concentration
PINK = tested on: PINK
AMPK (hum) = tested on: AMPK (hum)
PHK = tested on: PHK
ROCK 2 = tested on: ROCK 2

## COc1ccc2sc(-c3cncc(NC(C)=O)c3)nc2c1 [4-93, N-(5-(5-Methoxybenzo[d]thiazol-2-yl)pyridin-3-yl)acetamide]
PINK
  percentage inhibition: 0%
AMPK (hum)
  percentage inhibition: 1%
PHK
  percentage inhibition: 0%
ROCK 2
  percentage inhibition: 0%
